In article PMC11088064 (2024) one finds Kd data, which are given here for one molecule.

The test deals with Opdivo. As to the kind of experiment: SPR; pH 6.0. (In general: Surface plasmon resonance follows binding to a sensor surface in real time, without labels.)

B1: hPD-1 (PD-1-H5221, ACRO Biosystems) (receptor)
chain: LDSPDRPWNPPTFSPALLVVTEGDNATFTCSFSNTSESFVLNWYRMSPSNQTDKLAAFPEDRSQPGQDCRFRVTQLPNGRDFHMSVVRARRNDSGTYLCGAISLAPKAQIKESLRAELRVTERRAEVPTAHPSPSPRPAGQFQTLV
In general, Kd refers to the concentration at which binding is half-saturated. A lower Kd goes with a tighter complex. B1 showed an equilibrium dissociation constant (Kd) of 1.03 nM.
